Laboratory results: patent publication US5502037A, “Pro-cytotoxic drug conjugates for anticancer therapy” (priority 1993, dated 1996)

Tested on: PC12 pheochromocytoma cells
Conditions: HMDA 200 nM and 1 μM

NCCCCCCN [HMDA, hexamethylenediamine]
cytotoxicity effects of HMDA alone: negligible
